pIC50: −log10 of the molar value.
Legend:
HPAF-II cells = test: HPAF-II Cell Proliferation Assay; conditions: read-out: Inhibition of cell proliferation in HPAF-II (IC50 class), Table 2
[1] = target: B-Raf kinase (SEQ ID NO: 1) (Homo sapiens, UniProt P15056); test: Biochemical Assay for B-Raf (coupled pyruvate kinase/lactate dehydrogenase assay); conditions: read-out: BRAF (inhibition of biochemical activity, IC50); 1 mM ATP
HCT-116 cells = test: HCT-116 Cell Proliferation Assay; conditions: read-out: Inhibition of cell proliferation in HCT-116 (IC50 class), Table 2
Pa16c cells = test: Pa16c Cell Proliferation Assay; conditions: read-out: Inhibition of cell proliferation in Pa16c (IC50 class), Table 2
[2] = target: C-Raf kinase (SEQ ID NO: 2) (Homo sapiens, UniProt P04049, Y340D/Y341D); test: Biochemical Assay for C-Raf (coupled pyruvate kinase/lactate dehydrogenase assay); conditions: read-out: CRAF (inhibition of biochemical activity, IC50); 1 mM ATP
MiaPaca-2 cells = test: MiaPaca-2 Cell Proliferation Assay; conditions: read-out: Inhibition of cell proliferation in MiaPaca-2 (IC50 class), Table 2

By UniProt entry, the sequences of proteins in these tests, tags left out. Where a name states a change or a piece, a line headed by the entry shows the natural chain unless it says otherwise. Residues count along the entry.
UniProt P15056, 416-766: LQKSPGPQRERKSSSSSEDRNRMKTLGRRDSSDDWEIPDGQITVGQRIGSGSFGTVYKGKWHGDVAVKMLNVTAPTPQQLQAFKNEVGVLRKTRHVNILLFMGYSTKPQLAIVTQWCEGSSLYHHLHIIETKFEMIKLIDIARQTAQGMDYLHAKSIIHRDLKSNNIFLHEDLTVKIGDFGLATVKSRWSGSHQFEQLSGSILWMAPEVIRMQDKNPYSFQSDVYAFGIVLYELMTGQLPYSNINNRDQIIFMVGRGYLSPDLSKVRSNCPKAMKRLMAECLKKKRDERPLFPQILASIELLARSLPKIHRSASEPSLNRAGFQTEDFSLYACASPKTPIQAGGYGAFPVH
UniProt P04049, 307-648 Y340D/Y341D: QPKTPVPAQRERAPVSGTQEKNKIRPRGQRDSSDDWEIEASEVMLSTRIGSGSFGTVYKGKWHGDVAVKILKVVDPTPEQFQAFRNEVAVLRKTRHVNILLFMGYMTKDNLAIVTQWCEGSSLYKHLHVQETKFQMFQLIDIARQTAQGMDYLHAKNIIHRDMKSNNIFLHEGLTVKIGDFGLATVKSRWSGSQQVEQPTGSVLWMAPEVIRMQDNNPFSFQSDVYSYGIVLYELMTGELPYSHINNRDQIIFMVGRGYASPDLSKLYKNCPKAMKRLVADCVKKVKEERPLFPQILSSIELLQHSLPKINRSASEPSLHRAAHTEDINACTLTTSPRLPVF

Cc1ccc(NC(=O)c2cc(C(F)(F)F)cnn2)cc1-c1cncc(-c2cc(NC(=O)C3CC3)ncn2)c1
pIC50 (HPAF-II cells): 6.30 to 7.00 | pIC50 [1]: > 7.00 | pIC50 (HCT-116 cells): > 7.00 | pIC50 (Pa16c cells): 5.00 to 6.00 | pIC50 [2]: > 7.00 | pIC50 (MiaPaca-2 cells): 6.30 to 7.00

From US20260226084A1, “DUAL RAF AND TUBULIN INHIBITORS AND METHODS OF USE THEREOF” (Deciphera Pharmaceuticals, LLC, priority 2023, published 2026)
